# Biological target: MAO-A (Rattus norvegicus, UniProt P21396)
# Protein sequences, listed by entry. Tags and fused reporters are not part of them.
# UniProt P21396, whole entry: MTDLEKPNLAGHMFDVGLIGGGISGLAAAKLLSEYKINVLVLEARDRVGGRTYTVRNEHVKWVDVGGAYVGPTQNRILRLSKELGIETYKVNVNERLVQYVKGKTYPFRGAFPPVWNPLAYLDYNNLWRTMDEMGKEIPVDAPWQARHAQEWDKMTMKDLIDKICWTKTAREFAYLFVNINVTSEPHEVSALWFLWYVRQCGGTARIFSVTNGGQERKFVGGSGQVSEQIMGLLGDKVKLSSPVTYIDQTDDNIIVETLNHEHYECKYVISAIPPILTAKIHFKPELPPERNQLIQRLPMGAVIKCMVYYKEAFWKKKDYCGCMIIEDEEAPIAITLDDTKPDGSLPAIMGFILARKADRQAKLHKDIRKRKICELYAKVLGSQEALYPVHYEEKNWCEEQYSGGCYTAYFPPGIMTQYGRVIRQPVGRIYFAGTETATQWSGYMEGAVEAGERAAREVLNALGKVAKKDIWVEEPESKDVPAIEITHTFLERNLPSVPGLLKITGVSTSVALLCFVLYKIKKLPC
# Test: Inhibition of MAO activity in vivo, acute treatment, MAO-A
# Set-up: MAO activity determined in brain and liver using the general technique described above; from tissue; host or cells: brain and liver of treated rats
# Conditions: dose used in tyramine pressor test (2 mg/kg)
smiles,measurement,value
"C#CCN(C)CCCOc1ccc(Cl)cc1Cl [Clorgyline, reference compound]",inhibition of hepatic MAO-A activity,over 85%
